Among the data in PubChem BioAssay AID2107 (National Center for Advancing Translational Sciences (NCATS), 2009) are activity change, negative = inhibition values, retold here.

Amino acid sequences for entries named in this document (tags omitted). Residues count along the entry.
UniProt P06280, 32-429 limits assumed: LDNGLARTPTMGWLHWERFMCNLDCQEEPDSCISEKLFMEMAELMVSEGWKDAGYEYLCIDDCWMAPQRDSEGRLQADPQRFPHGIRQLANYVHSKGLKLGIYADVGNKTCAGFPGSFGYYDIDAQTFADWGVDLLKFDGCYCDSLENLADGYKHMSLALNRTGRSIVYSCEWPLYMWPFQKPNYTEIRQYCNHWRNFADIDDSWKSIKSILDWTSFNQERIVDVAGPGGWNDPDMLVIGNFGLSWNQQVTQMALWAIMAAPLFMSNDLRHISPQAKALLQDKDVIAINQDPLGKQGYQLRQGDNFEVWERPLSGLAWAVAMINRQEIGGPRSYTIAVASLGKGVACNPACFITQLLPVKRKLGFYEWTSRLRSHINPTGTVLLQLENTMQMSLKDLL

The structures appear in SMILES notation. The entries are a selection whose mix differs from that of the whole data set. Some results for these compounds are left out of this collection, so the calls shown say nothing about other tests. Active and inactive are the calls of the source. Calls follow the shape of the dose curve; as a rule, active = well fitted inhibition curve with a large enough effect; inconclusive = small, poorly fitted or top-dose-only effect, or effect the other way; inactive = flat fitted curve, though single readings scatter.

The test deals with Alpha-galactosidase A (Homo sapiens) (UniProt P06280). As to the kind of experiment: qHTS Assay for Inhibitors and Activators of Human alpha-Galactosidase From Spleen Homogenate.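 Also: 0% = enzyme with vehicle and -100% = no enzyme basal signal.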 The following applies: 4MU-alpha-Gal fluorescence, 40 min; at 80 µM (top of the series). An excerpt:
NIH Chemical Genomics Center [NCGC] NIH Molecular Libraries Probe Production Centers Network [MLPCN] MLPCN Grant: R03 MH084842-01 Assay Submitter (PI): Wei Zheng NCGC Assay Overview: Alpha-galactosidase is a homodimeric glycoprotein that hydrolyzes the terminal alpha-galactosyl moieties from glycolipids and glycoproteins. Deficiency of this enzyme results in Fabry Disease with progressive accumulation of globotriaosylceramide and other glycosphingolipids in vascular endothelial cells that causes renal failure, myocardial infarction and stroke, and premature death in patients. It has been reported that the improper folding and trafficking of alpha-galactosidase resulting from genetic mutations may account for a significant number of Fabry patients. […] We optimized this alpha-galactosidase assay in 1536-well plate format for identification of novel small molecule inhibitors or activators with structures other than the sugar analogs in order to develop new pharmacological chaperones. In particular, this assay is directed towards discovering compounds active in more natural setting, tissue homogenate, that may have been missed by screens of the purified enzyme under more stringent conditions.
NCGC Assay Protocol Summary: This is a fluorogenic enzyme assay with 4-methylumbelliferyl-alpha-D-galactopyranoside as the substrate and human spleen homogenate containing alpha-galactosidase as the enzyme preparation. Upon hydrolysis of this fluorogenic substrate, the resulting product, 4-methylumbelliferone (which excites at 365 nm and emits at 440 nm) can be detected by a fluorescence plate reader. Data were normalized to the controls for basal activity (without enzyme) and 100% activity (with enzyme). The AC50 values were determined from concentration-response data modeled with the standard Hill equation. Assay buffer: 50 mM citric acid (titrated with potassium phosphate to pH 5.0), 0.01% Tween-20 (pH 5.0 is an optimal condition for this enzyme assay) 1536-well assay protocol for the alpha-galactosidase from human spleen homogenate: (1) Add 2 ul/well spleen homogenate (1 ug) (2) Add 23 nL compounds in DMSO solution. The final titration was 0.5 nM to 58 uM. (3) Add 2 ul of substrate (1 mM final) (4) Incubate at 37C for 40 min (5) Add 2 ul stop solution (1M NaOH and 1M Glycine mixture, pH 10) (6) Detect the assay plate in a ViewLux plate reader (PerkinElmer) with Ex=365 nm and Em=440nm. Keywords: Alpha-galactosidase, Fabry Disease, pharmacological chaperone, chaperone therapy, high throughput screening, alpha- galactosidase inhibitor, MLSMR, MLSCN, NIH Roadmap, qHTS and NCGC
(In general: Quantitative high-throughput screening tests each substance at several concentrations.)
As for `CC(C)N1C(=O)CC2(CCN(CCOC(=O)C(O)(c3ccccc3)c3ccccc3)CC2)C1=O`, the activity change, negative = inhibition was inactive: 1.94%.

Turning to `CCN(CC)CC(C)C(C)OC(=O)C(O)(c1ccccc1)c1ccccc1` (stereo unspecified), the activity change, negative = inhibition is inactive: -1.91%.

As to `O=C(NCC1(N2CCCCC2)CCCCC1)c1cc([N+](=O)[O-])ccc1Cl`, the activity change, negative = inhibition was inactive: 2.44%.

In the case of `CCN1CCCC(OC(=O)C2(O)c3ccccc3C=Cc3ccccc32)C1` (stereo unspecified), the activity change, negative = inhibition is inactive: -9.26%.

As for `C=CCN1CCN(CCOC(=O)C(O)(c2ccccc2)c2ccccc2)CC1`, the activity change, negative = inhibition was inactive: -8.78%.

In the case of `CN(C)C1CCCC1OC(=O)C(O)(c1ccccc1)c1ccccc1` (stereo unspecified), the activity change, negative = inhibition is inactive: 3.56%.

With `Cc1ccccc1C(=O)NCC1(N2CCCCC2)CCCCC1`, the activity change, negative = inhibition is inactive: 3.35%.

For `COc1cccc(C(=O)NCC2(N3CCCCC3)CCCCC2)c1`, the activity change, negative = inhibition is inactive: 5.25%.

`CN(C)c1cccc(C(=O)NCC2(N(C)C)CCCCC2)c1`: the activity change, negative = inhibition was inactive: 12.6%.

Consider `COc1ccc(Br)c(C(=O)NCC2(N3CCCCC3)CCCCC2)c1`, for which the activity change, negative = inhibition was inactive: -9.52%.

As for `O=C(OC1CN2CCC1CC2)C(CO)(c1ccccc1)c1ccccc1` (stereo unspecified), the activity change, negative = inhibition is inactive: -0.111%.
